Results on 29 molecules are retold here after patent publication US12606541B2, “PPARg modulators and methods of use” (Eisai R&D Management Co., Ltd., priority 2020, dated 2026).

Amino acid sequences for entries named in this document (tags omitted). Residues count along the entry.
UniProt P37231, 234-505 limits assumed: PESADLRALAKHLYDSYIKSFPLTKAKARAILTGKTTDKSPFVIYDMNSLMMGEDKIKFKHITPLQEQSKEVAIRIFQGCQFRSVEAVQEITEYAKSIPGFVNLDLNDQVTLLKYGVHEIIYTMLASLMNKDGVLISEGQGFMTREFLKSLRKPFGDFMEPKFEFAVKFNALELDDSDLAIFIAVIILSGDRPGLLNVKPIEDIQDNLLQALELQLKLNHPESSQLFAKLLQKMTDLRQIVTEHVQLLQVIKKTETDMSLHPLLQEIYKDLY

One assay has as its target His6-TEV-PPARγ-(234-505) (Homo sapiens, UniProt P37231). Nature of the assay: TR-FRET Assay to Measure Co-R Peptide Recruitment to PPARγ. For orientation: In TR-FRET formats the signal depends on donor and acceptor labels being close together.
In the next assay the test system is UM-UC-9 engineered cells. Nature of the assay: Cell proliferation / short-term viability assay, CellTiter-Glo 144 h. Background: Cellular ATP, detected with luciferase, serves as a proxy for viable cell number.
Where [1] appears, read: read-out: TR-FRET i-Ag, Co-R peptide (SMRT-ID2) recruitment, top final concentration 20 μM.
Setting [2] is: read-out: CTGlo 144 h UMUC9.5, G150.

The structures appear in SMILES notation. Like-named read-outs stand apart in the source and are kept apart here.

With `CCN1C(=O)CCC12CCC(NC(=O)C1CCN(C(=O)c3cc(-c4cc(OC)ncc4F)[nH]n3)C3(CC3)C1)CC2` (single isomer, unassigned) [Example 328-B], the AC50 at His6-TEV-PPARγ-(234-505) (setting [1]) stood at 3.65 µM. Further, in the assay on UM-UC-9 engineered cells (setting [2]), the IC50 was greater than 10 µM.

In the case of `CCN1C(=O)CCC12CCC(NC(=O)C1CCN(C(=O)c3cc(-c4cc(OC)ncc4F)[nH]n3)C3(CC3)C1)CC2` (single isomer, unassigned) [Example 328-A], the AC50 at His6-TEV-PPARγ-(234-505) (setting [1]) worked out at 0.0534 µM. The IC50 with UM-UC-9 engineered cells (setting [2]) was 0.685 µM.

As to `COc1cc(-c2cc(C(=O)N3CC[C@H](C(=O)NC4CCC(C(F)(F)F)N(C)C4)CC34CC4)n[nH]2)c(F)cn1` (single isomer, unassigned) [Example 321-C], the AC50 at His6-TEV-PPARγ-(234-505) (setting [1]) is 0.0398 µM. For the same molecule, the IC50 in the assay on UM-UC-9 engineered cells (setting [2]) amounted to 0.13 µM.

In the case of `COc1cc(-c2cc(C(=O)N3CCC(C(=O)N[C@H]4CC[C@@](O)(C(F)(F)F)CC4)CC3C)n[nH]2)c(F)cn1` (single isomer, unassigned) [Example 401-C], the AC50 at His6-TEV-PPARγ-(234-505) (setting [1]) came to 0.0364 µM. Further, the IC50 with UM-UC-9 engineered cells (setting [2]) is 0.138 µM.

For `COC1(C(F)(F)F)CCC(NC(=O)[C@@H]2C[C@H]3CC[C@@H](C2)N3C(=O)c2cc(-c3cc(C)ncc3F)[nH]n2)CC1` (single isomer, unassigned) [Example 292-A], on His6-TEV-PPARγ-(234-505) (setting [1]), the AC50 was determined as 0.0049 µM. Besides, the IC50 in the assay on UM-UC-9 engineered cells (setting [2]) amounted to 0.0246 µM.

As for `COc1cc(-c2cc(C(=O)N3CC[C@H](C(=O)NC4CN(C)CCC4F)CC34CC4)n[nH]2)c(F)cn1` (single isomer, unassigned) [Example 422-D], on His6-TEV-PPARγ-(234-505) (setting [1]), the AC50 was found to be 0.128 µM. For the same molecule, in the assay with UM-UC-9 engineered cells (setting [2]), the IC50 stood at 0.415 µM.

For `COc1cc(-c2cc(C(=O)N3CC[C@H](C(=O)NC4CCOc5cc(F)cnc54)CC34CC4)n[nH]2)c(F)cn1` (single isomer, unassigned) [Example 383-B], the AC50 on His6-TEV-PPARγ-(234-505) (setting [1]) worked out at 0.0175 µM. In addition, in the assay on UM-UC-9 engineered cells (setting [2]), the IC50 turned out to be 0.039 µM.

For the molecule `COc1cc(-c2cc(C(=O)N3CC[C@H](C(=O)NC(C)C45CCC(O)(CC4)CC5)CC34CC4)n[nH]2)c(F)cn1` (single isomer, unassigned) [Example 411-A], the AC50 at His6-TEV-PPARγ-(234-505) (setting [1]) is 0.0188 µM. The IC50 with UM-UC-9 engineered cells (setting [2]) is 0.0649 µM.

On to `COc1cc(-c2cc(C(=O)N3CC[C@H](C(=O)NCC4CCc5[nH]nc(C)c5C4)CC34CC4)n[nH]2)c(F)cn1` (single isomer, unassigned) [Example 382-B], for which, on His6-TEV-PPARγ-(234-505) (setting [1]), the AC50 is 0.0051 µM. Moreover, the IC50 in the assay on UM-UC-9 engineered cells (setting [2]) is 0.0117 µM.

In the case of `COc1cc(-c2cc(C(=O)N3CCC(C(=O)NCC45COC(C4)C5)CC34CC4)n[nH]2)c(F)cn1` (single isomer, unassigned) [Example 337-A], the AC50 at His6-TEV-PPARγ-(234-505) (setting [1]) came out at 0.263 µM. In addition, the IC50 in the assay with UM-UC-9 engineered cells (setting [2]) came out at 0.447 µM.

In the case of `COc1cc(-c2cc(C(=O)N3[C@@H]4CC[C@H]3C[C@H](C(=O)NC3CCC(C(F)(F)F)N(C)C3)C4)n[nH]2)c(F)cn1` (single isomer, unassigned) [Example 306-E], the AC50 at His6-TEV-PPARγ-(234-505) (setting [1]) is 0.58 µM. In addition, the IC50 with UM-UC-9 engineered cells (setting [2]) was found to be 1.05 µM.

As to `CCO[C@]1(C(F)(F)F)CC[C@@H](NC(=O)C2CCN(C(=O)c3cc(-c4cc(C)ncc4F)[nH]n3)C3(CC3)C2)CC1` (single isomer, unassigned) [Example 323-A], the AC50 at His6-TEV-PPARγ-(234-505) (setting [1]) came out at 0.244 µM. Also, in the assay on UM-UC-9 engineered cells (setting [2]), the IC50 was 0.542 µM.

As to `COc1cc(-c2cc(C(=O)N3CC[C@H](C(=O)NC4CCC5(CCO5)CC4)CC34CC4)n[nH]2)c(F)cn1` (single isomer, unassigned) [Example 325-A], the AC50 on His6-TEV-PPARγ-(234-505) (setting [1]) amounted to 0.187 µM. For the same molecule, the IC50 in the assay with UM-UC-9 engineered cells (setting [2]) came to 2.89 µM.

As to `COc1cc(-c2cc(C(=O)N3CCC(C(=O)NC4CCC(C(F)(F)F)OC4)CC3)n[nH]2)c(Cl)cn1` (single isomer, unassigned) [Example 249-B], the AC50 at His6-TEV-PPARγ-(234-505) (setting [1]) was 0.0555 µM. Moreover, the IC50 in the assay with UM-UC-9 engineered cells (setting [2]) turned out to be 0.384 µM.

As to `COc1cc(-c2cc(C(=O)N3CC[C@H](C(=O)NC4CCC(N5C[C@@H](C)N[C@@H](C)C5)CC4)CC34CC4)n[nH]2)c(F)cn1` (single isomer, unassigned) [Example 460-B], at His6-TEV-PPARγ-(234-505) (setting [1]), the AC50 turned out to be 1.98 µM. In addition, the IC50 in the assay with UM-UC-9 engineered cells (setting [2]) is greater than 10 µM.

`COc1cc(-c2cc(C(=O)N3CC[C@H](C(=O)NC4CCOc5ccc(C)nc54)CC34CC4)n[nH]2)c(F)cn1` (single isomer, unassigned) [Example 380-B]: on His6-TEV-PPARγ-(234-505) (setting [1]), the AC50 is 0.0454 µM. In the assay with UM-UC-9 engineered cells (setting [2]), the IC50 is 0.139 µM.

Consider `Cc1cc(-c2cc(C(=O)N3[C@@H]4CC[C@H]3C[C@H](C(=O)NC3CCC(C(F)(F)F)OC3)C4)n[nH]2)c(F)cn1` (single isomer, unassigned) [Example 289-D], for which, on His6-TEV-PPARγ-(234-505) (setting [1]), the AC50 stood at 0.158 µM. Also, the IC50 with UM-UC-9 engineered cells (setting [2]) amounted to 0.153 µM.

`COc1cc(-c2cc(C(=O)N3CC[C@H](C(=O)NC4CCC(C)N(C)C4)CC34CC4)n[nH]2)c(F)cn1` (single isomer, unassigned) [Example 423-A]: the AC50 on His6-TEV-PPARγ-(234-505) (setting [1]) was 5 µM. Moreover, in the assay on UM-UC-9 engineered cells (setting [2]), the IC50 is 5.42 µM.

Regarding `COc1cc(-c2cc(C(=O)N3CC[C@@H](C(=O)NC4CCC5(CC4)OCCC5(F)F)CC34CC4)n[nH]2)c(F)cn1` (single isomer, unassigned) [Example 370-A], the AC50 at His6-TEV-PPARγ-(234-505) (setting [1]) came to 0.005 µM. Also, the IC50 in the assay on UM-UC-9 engineered cells (setting [2]) is 0.0009 µM.

With `COc1cc(-c2cc(C(=O)N3CCC(C(=O)NCc4cccc(Cl)c4)CC34CCC4)n[nH]2)c(Cl)cn1` (stereo not shown), the AC50 on His6-TEV-PPARγ-(234-505) (read-out: TR-FRET i-Ag, Co-R peptide (SMRT-ID2) recruitment, top final concentration 20 μM, tested form: mixture of the (S) and (R) enantiomers) is 0.488 µM. In addition, the IC50 with UM-UC-9 engineered cells (read-out: CTGlo 144 h UMUC9.5, G150, tested form: mixture of the (S) and (R) enantiomers) came out at 0.185 µM.

As to `COc1cc(-c2cc(C(=O)N3CC[C@H](C(=O)NCC4CCc5[nH]nc(C)c5C4)CC34CC4)n[nH]2)c(F)cn1` (single isomer, unassigned) [Example 382-A], on His6-TEV-PPARγ-(234-505) (setting [1]), the AC50 came to 0.0052 µM. The IC50 with UM-UC-9 engineered cells (setting [2]) amounted to 0.0183 µM.

On to `O=C(NCc1ncc(F)cc1Cl)C1CCN(C(=O)c2cc(-c3cc(C4CC4)ncc3F)[nH]n2)C2(CC2)C1` (single isomer, unassigned) [Example 480-A], for which the AC50 on His6-TEV-PPARγ-(234-505) (setting [1]) turned out to be 2.31 µM. In addition, the IC50 in the assay on UM-UC-9 engineered cells (setting [2]) turned out to be 5.08 µM.

As for `COc1cc(-c2cc(C(=O)N3CC[C@H](C(=O)NCC4CCc5nccn5C4)CC34CC4)n[nH]2)c(F)cn1` (single isomer, unassigned) [Example 356-A], the AC50 at His6-TEV-PPARγ-(234-505) (setting [1]) came to 0.102 µM. Besides, in the assay on UM-UC-9 engineered cells (setting [2]), the IC50 was 4.64 µM.

On to `COc1cc(-c2cc(C(=O)N3CC[C@H](C(=O)NC4CN(C)CCC4F)CC34CC4)n[nH]2)c(F)cn1` (single isomer, unassigned), for which the AC50 at His6-TEV-PPARγ-(234-505) (read-out: TR-FRET i-Ag, Co-R peptide (SMRT-ID2) recruitment, top final concentration 20 μM, tested form: mixture of four diastereomers (piperidin)) stood at 0.174 µM. Moreover, the IC50 with UM-UC-9 engineered cells (read-out: CTGlo 144 h UMUC9.5, G150, tested form: mixture of four diastereomers (piperidin)) was 0.285 µM.

As for `COc1cc(-c2cc(C(=O)N3CC[C@H](C(=O)NC4CCC(O)(C(F)(F)F)CC4O)CC34CC4)n[nH]2)c(F)cn1` (single isomer, unassigned) [Example 504-A], the AC50 at His6-TEV-PPARγ-(234-505) (setting [1]) turned out to be 2.13 µM. The IC50 in the assay on UM-UC-9 engineered cells (setting [2]) is greater than 10 µM.

Consider `COc1cc(-c2cc(C(=O)N3[C@@H]4CC[C@H]3C[C@H](C(=O)NC3CCC(C(F)(F)F)OC3)C4)n[nH]2)c(F)cn1` (single isomer, unassigned) [Example 280-D], for which, at His6-TEV-PPARγ-(234-505) (setting [1]), the AC50 stood at 0.0149 µM. Also, the IC50 in the assay on UM-UC-9 engineered cells (setting [2]) amounted to 0.0449 µM.

For the molecule `COc1cc(-c2cc(C(=O)N3[C@@H]4CC[C@H]3C[C@H](C(=O)NC3CCC(C(F)(F)F)N(CC(C)(C)F)C3)C4)n[nH]2)c(F)cn1` (single isomer, unassigned) [Example 326-B], the AC50 on His6-TEV-PPARγ-(234-505) (setting [1]) stood at 0.485 µM. Also, the IC50 with UM-UC-9 engineered cells (setting [2]) came out at 1.31 µM.

For the molecule `COc1cc(-c2cc(C(=O)N3CC[C@@H](C(=O)NC4CCC(C(F)(F)F)N(C)C4)CC34CC4)n[nH]2)c(F)cn1` (single isomer, unassigned) [Example 322-C], the AC50 at His6-TEV-PPARγ-(234-505) (setting [1]) was 3.2 µM. Further, the IC50 with UM-UC-9 engineered cells (setting [2]) is greater than 4 µM.

Regarding `COc1cc(-c2cc(C(=O)N3CC[C@H](C(=O)NCc4nccnc4C4CC4CO)CC34CC4)n[nH]2)c(F)cn1` (single isomer, unassigned) [Example 481-A], the AC50 at His6-TEV-PPARγ-(234-505) (setting [1]) was 0.171 µM. Besides, the IC50 with UM-UC-9 engineered cells (setting [2]) was 4.41 µM.
